Values quoted from earlier work, collected in patent publication US20200239921A1, “CHEMOENZYMATIC SYNTHESIS OF S-NUCLEOSYL AMINO ACIDS (SNA), ANALOGS OF S-ADENOSYL-L-METHIONINE AND S-ADENOSYL-L- HOMOCYSTEINE AND USES THEREOF” (ALBERT EINSTEIN COLLEGE OF MEDICINE, priority 2016, published 2020).

Amino acid sequences for entries named in this document (tags omitted). A change or cut given only in a name is not applied to a line headed by its entry.
UniProt Q8TEK3: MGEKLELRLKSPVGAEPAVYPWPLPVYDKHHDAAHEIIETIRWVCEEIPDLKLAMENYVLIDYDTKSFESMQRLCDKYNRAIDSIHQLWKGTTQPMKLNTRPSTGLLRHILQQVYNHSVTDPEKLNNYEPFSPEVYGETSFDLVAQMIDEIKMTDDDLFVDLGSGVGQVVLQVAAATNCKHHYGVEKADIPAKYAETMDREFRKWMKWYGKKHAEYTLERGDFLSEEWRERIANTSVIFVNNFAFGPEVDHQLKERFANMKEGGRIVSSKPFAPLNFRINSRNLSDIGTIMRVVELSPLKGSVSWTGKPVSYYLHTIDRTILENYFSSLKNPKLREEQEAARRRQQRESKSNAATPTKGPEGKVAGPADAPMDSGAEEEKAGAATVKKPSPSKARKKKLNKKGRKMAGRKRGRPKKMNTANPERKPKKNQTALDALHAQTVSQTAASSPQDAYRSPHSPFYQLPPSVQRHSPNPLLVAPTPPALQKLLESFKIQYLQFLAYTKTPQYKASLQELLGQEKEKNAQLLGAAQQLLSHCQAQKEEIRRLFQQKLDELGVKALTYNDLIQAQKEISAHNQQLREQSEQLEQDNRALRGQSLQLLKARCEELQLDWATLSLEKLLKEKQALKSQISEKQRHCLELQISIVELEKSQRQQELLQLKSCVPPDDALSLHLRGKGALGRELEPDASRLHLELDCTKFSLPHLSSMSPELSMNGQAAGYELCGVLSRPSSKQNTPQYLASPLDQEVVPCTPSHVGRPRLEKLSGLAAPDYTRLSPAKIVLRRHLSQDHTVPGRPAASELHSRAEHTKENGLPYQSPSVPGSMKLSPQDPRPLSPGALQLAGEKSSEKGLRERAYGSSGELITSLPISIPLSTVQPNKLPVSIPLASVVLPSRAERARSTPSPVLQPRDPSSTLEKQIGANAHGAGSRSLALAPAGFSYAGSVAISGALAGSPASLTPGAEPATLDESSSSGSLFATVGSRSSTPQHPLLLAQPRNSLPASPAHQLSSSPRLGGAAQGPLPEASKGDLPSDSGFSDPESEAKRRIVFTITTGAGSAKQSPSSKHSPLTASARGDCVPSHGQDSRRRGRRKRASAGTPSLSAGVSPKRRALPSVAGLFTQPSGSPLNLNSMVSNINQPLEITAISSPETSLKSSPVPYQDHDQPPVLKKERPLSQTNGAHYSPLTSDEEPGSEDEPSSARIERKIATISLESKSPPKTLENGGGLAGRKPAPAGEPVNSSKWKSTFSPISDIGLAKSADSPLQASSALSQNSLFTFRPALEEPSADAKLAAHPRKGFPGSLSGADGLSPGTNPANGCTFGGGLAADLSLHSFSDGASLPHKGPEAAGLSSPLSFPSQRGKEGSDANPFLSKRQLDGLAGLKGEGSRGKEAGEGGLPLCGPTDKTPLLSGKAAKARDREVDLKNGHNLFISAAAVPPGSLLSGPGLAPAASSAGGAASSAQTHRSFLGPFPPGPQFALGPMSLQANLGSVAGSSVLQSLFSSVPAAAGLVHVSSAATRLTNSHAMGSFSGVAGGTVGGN

Molecular target: human Dot1L (Homo sapiens, UniProt Q8TEK3)
Conditions: from Ki, FIG. 2 second row in table; cited from earlier work

For `CNc1ncnc2c1ncn2[C@@H]1O[C@H](CSCC[C@H](N)C(=O)O)[C@@H](O)[C@H]1O` [N6-methyl SAH], the “selectivity for Dot1L over CARM1” value is listed as 350 fold and the “selectivity for Dot1L over PRMT1” value is listed as 80 fold.
